Test results as given in ChEMBL document CHEMBL5033998, “Discovery of DDO-2213 as a Potent and Orally Bioavailable Inhibitor of the WDR5-Mixed Lineage Leukemia 1 Protein-Protein Interaction for the Treatment of MLL Fusion Leukemia” (J Med Chem, 2021).

Columns and labels:
[1] = molecular target: T1, WD repeat-containing protein 5 (Homo sapiens, UniProt P61964)
[2] = molecular target: T1, WD repeat-containing protein 5; experiment: Binding affinity to WDR5 (unknown origin) by isothermal titration calorimetry assay
[3] = molecular target: T1, WD repeat-containing protein 5; remark: listed apart in the source
[4] = Apparent volume of distribution in Sprague-Dawley rat at 2 mg/kg, iv measured upto 24 hrs by LC-MS/MS analysis; assay type: ADME, organism-based; conditions: in vivo

deltaH [1]: -12.2 kcal/mol | Kd [2]: 73 nM | deltaG [3]: -9.73 kcal/mol | Vz/F [4]: 12.2 L/kg
SMILES: CN1CCN(c2cc(F)c(-c3ccc(C(=O)N(C)C)cc3)cc2Nc2ncnc(Cl)c2N)CC1
